Here are results for five molecules from patent US9850216B2 (H. LEE MOFFITT CANCER CENTER AND RESEARCH INSTITUTE, INC., priority 2013, dated 2017).

Sequences of proteins named here, by UniProt entry; tags and fusion partners are left off.
UniProt Q07912, whole entry: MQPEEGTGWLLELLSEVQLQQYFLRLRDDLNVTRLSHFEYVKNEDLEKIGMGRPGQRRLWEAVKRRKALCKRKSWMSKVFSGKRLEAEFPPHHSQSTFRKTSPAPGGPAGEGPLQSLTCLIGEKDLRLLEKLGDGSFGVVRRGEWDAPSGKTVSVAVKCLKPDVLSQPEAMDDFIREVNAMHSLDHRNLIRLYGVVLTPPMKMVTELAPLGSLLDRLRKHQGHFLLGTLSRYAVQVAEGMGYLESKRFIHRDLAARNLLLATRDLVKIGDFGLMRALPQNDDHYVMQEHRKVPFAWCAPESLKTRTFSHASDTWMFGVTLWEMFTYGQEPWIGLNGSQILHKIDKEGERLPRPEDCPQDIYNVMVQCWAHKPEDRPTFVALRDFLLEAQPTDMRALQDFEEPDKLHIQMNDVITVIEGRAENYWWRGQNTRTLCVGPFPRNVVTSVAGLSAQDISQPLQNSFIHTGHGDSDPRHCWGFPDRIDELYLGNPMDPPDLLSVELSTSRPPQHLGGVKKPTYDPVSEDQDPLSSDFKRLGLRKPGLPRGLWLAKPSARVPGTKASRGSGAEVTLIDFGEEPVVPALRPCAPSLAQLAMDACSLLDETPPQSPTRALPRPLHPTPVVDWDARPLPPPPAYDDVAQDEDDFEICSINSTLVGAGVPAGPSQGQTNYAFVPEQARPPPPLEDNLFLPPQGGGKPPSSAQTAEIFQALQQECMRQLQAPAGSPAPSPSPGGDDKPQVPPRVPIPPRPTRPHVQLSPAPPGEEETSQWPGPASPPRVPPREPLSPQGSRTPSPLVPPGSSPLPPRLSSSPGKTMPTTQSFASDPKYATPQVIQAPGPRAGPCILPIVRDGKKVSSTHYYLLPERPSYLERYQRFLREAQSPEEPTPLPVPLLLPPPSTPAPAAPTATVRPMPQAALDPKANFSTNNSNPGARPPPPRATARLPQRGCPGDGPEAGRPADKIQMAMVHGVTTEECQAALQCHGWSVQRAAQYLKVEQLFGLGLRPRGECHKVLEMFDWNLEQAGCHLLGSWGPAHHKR

For data set [1] the following is noted: mouse models; literature; cited from earlier work.
In the next data set the target is ACK1 (Homo sapiens, UniProt Q07912). The experiment in a line: 32P Hotspot assay (Reaction Biology), ACK1 IC50. Format: biochemical.
The next data set has as its system VCaP cells. The experiment in a line: Cell proliferation, trypan blue exclusion, VCaP. The conditions noted are these: read-out: IC50, inhibition of cell growth in VCaP cells; 36 hrs, viable cells by trypan blue exclusion.
Data set [2] in a line: In vitro human plasma stability by HPLC. The conditions noted are these: time-course up to 24 hrs.

One may read the IC50 as the concentration that inhibits the measured activity by half.

Read-outs that look alike come from different tables or passages of the source.

With `COc1cc(Oc2ccccc2)ccc1-c1nc(C2CC(C)(O)C2)n2ccnc(N)c12` (centres unmarked), the oral bioavailability result in data set [1] is reported as “orally bioavailable”.
Consider `CN1CCN(c2ccc(Nc3nccc(NCC4CCCO4)n3)cc2)CC1` (racemic), for which, at ACK1, the “fold improvement in ACK1 inhibitory activity (IC50) versus related analog” value is recorded as more than 1.5 fold. Moreover, the IC50 on ACK1 (read-out: ACK1 IC50, 32P hotspot / enzymatic assay) worked out at 28 nM.
For the molecule `CN1CCN(c2ccc(Nc3ncc(Cl)c(NC[C@H]4CCCO4)n3)cc2)CC1` [DZ1-067, (R)-5-chloro-N2-(4-(4-methylpiperazin-1-yl)phenyl)-N4-((tetrahydrofuran-2-yl)methyl)pyrimidine-2,4-diamine], in the data set with VCaP cells, the IC50 is 2 µM. For the same molecule, the “stability in human plasma” value in data set [2] is on record as “stable in human plasma”. Further, on ACK1, the “fold improvement in ACK1 inhibitory activity (IC50) versus related analog” value came out at 1.5 fold; the “selectivity towards ACK1 compared with Src and ALK” value is recorded as “considerable selectivity towards ACK1”.
As for `CN1CCN(c2ccc(Nc3ncc(Cl)c(NC[C@@H]4CCCO4)n3)cc2)CC1` [DZ1-077, (S)-5-chloro-N2-(4-(4-methylpiperazin-1-yl)phenyl)-N4-((tetrahydrofuran-2-yl)methyl)pyrimidine-2,4-diamine], the IC50 with VCaP cells was 4 µM. Moreover, the “stability in human plasma” value in data set [2] is “stable in human plasma”. Besides, the “selectivity towards ACK1 compared with Src and ALK” value at ACK1 is given as “considerable selectivity towards ACK1”.
In the case of `Cc1cc(Nc2ncc(Br)c(NCC3CCCO3)n2)ccc1O` (centres unmarked) [SK1-040, 4-(5-bromo-4-((tetrahydrofuran-2-yl)methylamino)pyrimidin-2-ylamino)-2-methylphenol], the IC50 at ACK1 (read-out: IC50 (32P Hotspot assay), Table 2) stood at 99 nM.
